From patent US20240317895A1

Biological target: PTlinker-SpyCatcher003-His
Test: depletion of SpyTag003-GA (2.0 mg/g carrier) from E. coli lysate supernatant, SDS-PAGE densitometry; SpyCatcher003-LX-1000EP (blocking control without SpyCatcher003 14.9)

SpyTag003-Gslinker-GA-His (from UniProt P07662 30-720) (enzyme)
Immobilization Efficiency (%): 26.1%
